Experimental data published in publication PMC8096218, “Global RNA profiles show target selectivity and physiological effects of peptide-delivered antisense antibiotics” (Nucleic Acids Research, 2021).
Read-outs that look alike come from different tables or passages of the source.

Test system: wild-type (wt) Salmonella enterica serovar Typhimurium strain SL1344
Description: MIC values were determined by broth microdilution according to standard protocols with a few modifications ([26]). An overnight bacterial cell culture, supplemented with the appropriate antibiotic when needed, was diluted 1:100 in fresh MHB and grown to OD600 0.5. The obtained culture was diluted to ∼10^5 cfu/ml or 10^6 cfu/ml, as indicated, in non-cation-adjusted MHB. Subsequently, 190 μl bacterial solution was dispensed into a 96-well plate (Thermo Fisher Scientific) along with 10 μl of a 20x PPNA, PNA or peptide working solution. Growth was monitored by measuring the OD at 600 nm every 20 min in a Synergy H1 plate reader (Biotek) with continuous double-orbital shaking (237 cpm) at 37°C for 24 h.

MIC (Table 1, ∼10^5 cfu/ml, non-cation-adjusted MHB, 37°C, 24 h): 1.5 µg/mL
MIC (wild-type (wt) serovar Typhimurium strain SL1344, 24 h): 0.7 µM
Compound: CC[C@H](C)[C@H](NC(=O)[C@H](CCCCN)NC(=O)[C@@H](NC(=O)[C@H](CCC(N)=O)NC(=O)[C@@H](N)CCCNC(=N)N)[C@@H](C)CC)C(=O)N[C@@H](Cc1c[nH]c2ccccc12)C(=O)N[C@@H](Cc1ccccc1)C(=O)N[C@@H](CCC(N)=O)C(=O)N[C@@H](CC(N)=O)C(=O)N[C@@H](CCCNC(=N)N)C(=O)N[C@@H](CCCNC(=N)N)C(=O)N[C@@H](CCSC)C(=O)N[C@@H](CCCCN)C(=O)N[C@@H](Cc1c[nH]c2ccccc12)C(=O)N[C@@H](CCCCN)C(=O)N[C@@H](CCCCN)C(=O)O [ANT, reference compound]
